## Yeast mating assay 2: variants of the scFv Ab-95

Binding partner: SARS-CoV-2 spike HR2 peptide, sequence PDVDLGDISGINAS.

Parent scFv Ab-95: VH joined to VL by three GGGGS repeats. Changes lie in the light chain CDRs alone.
VH: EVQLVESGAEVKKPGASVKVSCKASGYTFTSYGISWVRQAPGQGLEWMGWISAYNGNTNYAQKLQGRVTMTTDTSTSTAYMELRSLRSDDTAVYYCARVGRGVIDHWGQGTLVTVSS
VL: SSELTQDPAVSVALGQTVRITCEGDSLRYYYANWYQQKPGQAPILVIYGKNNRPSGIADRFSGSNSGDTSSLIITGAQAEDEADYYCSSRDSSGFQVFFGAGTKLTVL

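The starting antibody came from a phage panning campaign against this peptide. The library (AAYL52) carries one to three amino acid substitutions per variant, with no insertions or deletions. In AlphaSeq, yeast of one mating type display the scFv and yeast of the other type display the target. The frequency of each diploid, read from paired DNA barcodes, reflects how well the two displayed proteins bind. Each replicate has its own calibration line, from reference interactions of the BCL2 family. There are three technical replicates.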

The parent's light chain CDRs are EGDSLRYYYAN, GKNNRPS, SSRDSSGFQVF; each variant's own CDRs replace them letter for letter.
Numbers give log10(Kd / nM), so 0 is 1 nM and 3 is 1 µM. Smaller is tighter.
"ND" means that the variant was in the library but no mating with the target was seen in that replicate; the authors take this as a sign of poor binding, and no number exists.

CDR-L1,CDR-L2,CDR-L3,"replicates, log10 nM",control signals
EGYSLRYLYAN,GKNQRPS,SSRDSSGFQVF,2.04 / 1.71 / 1.53,1/9 (3.62)
EGDSLCYYYAN,IKNNRPS,SSRDSSGFDVF,3.53 / 5.33 / ND,4/9 (3.62)
EGDSLRYYYAN,MKNHRPY,SSRDSSGFQVF,4.03 / ND / ND,3/9 (3.67)
EGDSLRYYYAP,GKNNRSS,SSKDSSGFQVF,3.00 / 5.77 / ND,2/9 (3.62)
EGDSLRYYYAN,GKNNRPH,SKRASSGFQVF,2.40 / 2.77 / 2.29,0/9
EGDSLTYYYAN,GANNRPS,SSYDSSGFQVF,3.24 / 4.49 / 3.95,3/9 (3.47)
EGDKLRYYYAS,GKNNRPS,SSRDSSGPQVF,ND / ND / ND,1/9 (2.62)
EGDSLRYYYAD,GKNNRPS,SSRDKSGFQVF,3.45 / 4.49 / 2.92,1/9 (4.44)
ENDSLRYYYAK,GKNNRPS,SSRDSGGFQVF,ND / ND / ND,3/9 (3.95)
EGDSLRYYYAN,GKNCAPS,SSRDSSGFQVF,ND / ND / ND,2/9 (3.97)
EGDSLRYYYNN,GDNNRPS,ISRDSSGFQVF,2.78 / 2.60 / 2.38,4/9 (3.67)
EIDSLRYYDAN,GKNNWPS,SSRDSSGFQVF,3.89 / 4.55 / ND,5/9 (3.93)
EGDSRRYYYAN,GKNNRTS,SSRYSSGFQVF,ND / ND / ND,0/9
EGDSLRYYYAN,GLNNRPS,ISRDSSGFQVR,3.81 / 5.32 / ND,3/9 (3.35)
EGDSLRYYYAN,MKNNRPS,ASRDSSGFQAF,ND / ND / ND,1/9 (4.26)
EGLSLRYYYAN,GKNNRPF,SSQDSSGFQVF,2.35 / 4.19 / 2.86,3/9 (3.18)
EGDSMKYYYAN,GKNNRPS,SSRDSSGSQVF,2.94 / 2.78 / 2.91,0/9
EGDSLRYYYAN,GKNNCPS,SSRDSRGFQVM,3.62 / ND / 3.72,4/9 (3.99)
EGDSLRYYYAN,GKNNRQS,SSRTSSGRQVF,ND / 3.05 / 3.50,6/9 (4.55)
EGFSLRYYYAN,GKNGRPV,SSRDSSGFQVF,3.75 / 4.20 / 4.28,3/9 (3.92)
NGDSLRYYYAN,GKENNPS,SSRDSSGFQVF,3.21 / ND / ND,0/9
EGDSLRYYYAQ,GKNNRPS,WSSDSSGFQVF,4.77 / ND / 4.13,1/9 (4.27)
EGDSLRYYYAN,GKNPRPS,SSRDSSKFQFF,ND / ND / ND,1/9 (4.47)
EGDSKRYYYAN,GKNNFPT,SSRDSSGFQVF,ND / 3.21 / ND,4/9 (3.00)
LGDSLRKYYAN,GKNNRPS,SSRASSGFQVF,3.14 / 3.45 / 2.69,6/9 (3.87)
SGDSLRYAFAN,GKNNRPS,SSRDSSGFQVF,0.99 / 0.87 / 0.29,6/9 (4.50)
EGTSLRQYYAN,GKNNRPS,SSRDSSGFTVF,3.00 / 2.24 / 2.00,5/9 (3.69)
EGDSLRYYYAN,IKNNELS,SSRDSSGFQVF,ND / 4.97 / ND,0/9
EGDSLRYYYAN,YKNNYPS,SYRDSSGFQVF,ND / ND / ND,2/9 (3.96)
EGDSLRYYYWN,GKNNRPS,SGRDSSHFQVF,3.64 / ND / ND,4/9 (3.52)
EWNSLRYYWAN,GKNNRPS,SSRDSSGFQVF,4.76 / ND / ND,1/9 (3.54)
EGTSLRCYYAN,GKNKRPS,SSRDSSGFQVF,ND / ND / ND,0/9
EGDSFRYYYAQ,GKNNRPS,SSRDSSGFQPF,5.69 / ND / ND,4/9 (3.59)
EGDSTRYYYQN,GKNNRPS,SSRDSSGFQVW,3.21 / 3.17 / 2.80,4/9 (4.60)
EGDSLRYYYAN,GKNNRHW,RSRDSSGFQVF,4.20 / ND / 3.74,3/9 (3.83)

A selection of 6 entries from above:

| CDR-L1 | CDR-L2 | CDR-L3 | replicates, log10 nM | control signals |
|---|---|---|---|---|
| EGDSLRYYYAN | GKNPRPS | SSRDSSKFQFF | ND / ND / ND | 1/9 (4.47) |
| EGDSLRYYYWN | GKNNRPS | SGRDSSHFQVF | 3.64 / ND / ND | 4/9 (3.52) |
| EGDSLRYYYAN | MKNNRPS | ASRDSSGFQAF | ND / ND / ND | 1/9 (4.26) |
| LGDSLRKYYAN | GKNNRPS | SSRASSGFQVF | 3.14 / 3.45 / 2.69 | 6/9 (3.87) |
| EGDKLRYYYAS | GKNNRPS | SSRDSSGPQVF | ND / ND / ND | 1/9 (2.62) |
| EGDSLRYYYAN | GKNNRPH | SKRASSGFQVF | 2.40 / 2.77 / 2.29 | 0/9 |

Background: pairings of library AAYL52 with three empty control strains gave a value in 28% of cases (median 3.91, 5th percentile 2.90). Values in that range, when seen in few replicates, are hard to tell from nonspecific mating. Also given: how often the same scFv was detected with the empty control strains, with their mean in brackets.
In this assay the parent's reference entry averaged 2.31; its copy inside this library read 2.25.

Data: MIT Lincoln Laboratory AlphaSeq set, Engelhart et al. 2022, doi:10.1038/s41597-022-01779-4, as distributed in FLAb.